The results in this text go back to US4816465A, “Decahydroquinolines and analgesic use thereof” (dated 1989).

Chains of the proteins cited; added tags and fusions are not shown.
UniProt P41144, whole entry: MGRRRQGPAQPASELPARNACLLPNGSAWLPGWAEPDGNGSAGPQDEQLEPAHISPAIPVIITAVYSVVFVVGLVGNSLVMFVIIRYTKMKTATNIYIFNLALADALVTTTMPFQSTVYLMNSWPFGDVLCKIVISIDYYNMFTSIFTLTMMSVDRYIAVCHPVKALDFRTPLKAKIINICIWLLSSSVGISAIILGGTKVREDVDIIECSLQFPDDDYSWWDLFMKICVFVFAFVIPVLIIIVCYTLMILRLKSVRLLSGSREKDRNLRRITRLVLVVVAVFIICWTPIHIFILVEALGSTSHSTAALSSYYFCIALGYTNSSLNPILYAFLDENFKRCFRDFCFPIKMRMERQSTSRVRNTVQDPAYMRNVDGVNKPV

For the assay, the target named is Opiate Receptor K (Cavia porcellus, UniProt P41144). Description: Bond with the Opiate Receptor K in vitro (displacement of 3H ethylketocyclazocine, guinea-pig cerebella membranes). The conditions noted are these: read-out: IC50 (50% inhibiting concentration), 9 3H ethylketo-cyclazocine 1 nM, Tris pH 7.7, 25° C., 40 minutes. The method, then:
Membrane residues were used kept at -30° C. for about 30 days, and prepared from the cerebella of guinea-pigs. These residues were put back into suspension in Tris buffer pH 7.7 and 2 ml fractions were distributed in hemolysis tubes and 9^3 H ethylketo-cyclazocine InM and the product under test were added. The product was first tested at 5×10^-6 M (in triplicate). When the product tested displaced by more than 50%, the radio-activity bonded specifically to the receptor, it was tested again over a range of 7 doses to determine the dose which inhibited by 50% the radio-acitivity bonded specifically to the receptor. In this way, the 50% inhibiting concentration was determined.
The non-specific bonding was determined by the addition of the product known under the name U-50488 H at 10^-5 M (in triplicate). After incubating at 25° C. for 40 minutes, returning to the water-bath at 0° C. for 5 minutes, filtering under vacuum, and rinsing with Tris buffer pH 7.7, the radio-activity was counted in the presence of scintillating Trition. The results were expressed directly as the 50% inhibiting concentration (IC50), that is to say, in concentration of the product studied, expressed in nM, necessary in order to displace 50% of the specific radio-activity fixed on the receptor studied.

Turning to `O=C(c1ccc(Cl)c(Cl)c1)N1CCC[C@@H]2CCC[C@@H](N3CCCC3)[C@@H]21` (relative stereo), the IC50 is 7.4 nM.
